# Measurements reported in patent US20130123192A1.
# Target: E-cadherin (human (endogenous in human LNCaP cells)) (UniProt P12830)
# Test: cell-based or functional assay
substance,measurement,value
MT1-MMP-GFP chimera (MT1-GFP) (from UniProt P50281 112-582),shed E-cadherin in the conditioned medium,5 fold
